# In patent US20230088717A1, “NEW IMMUNOSTIMULATORS AND USE THEREOF IN IMMUNOTHERAPY” (NANTES UNIVERSITÉ, priority 2020, published 2023):
# Experiments:
# iNKT cells [1] = experiment: IFN-γ secretion by iNKTs after activation with HeLa-CD1d cells loaded with cetuximab coupling fractions; format: cell-based, human; conditions: for Observed concentration (glycolipid concentration equivalent to observed IFN-γ secretion): HeLa-CD1d cells
# Procedure: (§1) First cetuximab was modified by adding TRAUT functions, with a ratio of 100 TRAUT molecules for 1 antibody. It allowed addition of at least 4 TRAUT functions to cetuximab, as determined by the Ellman reaction previously investigated (data not shown). The mixture was washed and then 1/1 equivalent of 6-Mal-PEG6-GalCer 3a and activated cetuximab were incubated to initiate the linkage.
# (§2) The main difficulty encountered in these experiments is to ensure the elimination of the unreacted glycolipids in the medium after the coupling reaction with the antibody. Various methods were tested: Protein A, exclusion chromatography, electrophoresis, filtrations. Success was encountered when the resulting fractions were washed 3 time by filtration on VivaSpin15 column (MWCO: 50 Kda).
# (§3) This condition was used as a control to follow the elimination of unbound glycolipid under washing conditions.
# (§4) Experiments were run on two series of transfected-CD1d Hela cells and non-CD1d-Hela Cells and 3 diluted samples of fractions A and B (10 μg/ml, 1 μg/ml and 0.1 μg/ml) were evaluated. In each series of Hela cells stimulation activity of the glycolipid alone was previously evaluated as reference following IFN-γ secretion.
# (§5) Maximum theoretical concentration of free glycolipid (unbounded) that can remain in the diluted fractions after coupling reaction if the washing process is inefficient.
# (§6) Estimated theoretical concentration of glycolipid that have to be remained in the diluted fractions after the washing process to induce the level of observed cytokine secretion (based on the reaction control with free glycolipid).
# iNKT cells [2] = experiment: IFN-γ secretion by iNKTs after activation with non transfected HeLa cells loaded with cetuximab coupling fractions; format: cell-based, human; conditions: for Observed concentration (glycolipid concentration equivalent to observed IFN-γ secretion): non transfected HeLa cells
# Procedure: as §1, §2, §3, §4, §5, §6
# as §1, with “½” for “1/1”
# as §2, with “Kda) follow by purification on Superdex 200 10/300 GL column for size exclusion chromatography.” for “Kda).”
# Two different experimental conditions were used to validate the purification process (see Table 9). • Fraction B: Cetuximab is not modified by TRAUT activation and 6-Mal-PEG6-GalCer 3a. This condition was used as a control to follow the elimination of unbound glycolipid under washing conditions.
# Experiments were run on non-CD1d-Hela Cells and 3 diluted samples of fractions A and B (10 μg/ml, 1 μg/ml and 0.1 μg/ml) were evaluated. Mass spectrometry analysis indicate that two molecules of 6-Mal-PEG6-GalCer 3a were linked per antibody, so when 10 μg/ml of Fraction A was used, it corresponds approximately to a concentration of 10^−7M of equivalent 6-Mal-PEG6-GalCer 3a. In each series of Hela cells stimulation activity of the glycolipid alone was previously evaluated as reference following IFN-γ secretion.
# HCT116 and HeLa cells = experiment: ADCC assay with NK92-CD16+ cells, mortality of target cells by flow cytometry; format: cell-based; conditions: 24 hours
# Procedure: Another important function of cetuximab is its ability to induce ADCC. It was important to check the preservation of that behaviour from GalCer/Cetuximab complex C1. […] Target cells (HCT116 and HeLa cells) were coincubated for 1 hour with cetuximab alone (blue left panel) or Cetuximab-GalCer Complex C1 (red right panel). Then ADCC was initiated by addition of NK92-CD16+ cells (a conventionally cell line used for ADCC assay) follow by an incubation for 24 hours. Mortality of target cells was analysed by Flow Cytometry.
substance,measurement,setting,value
GalCer/Cetuximab complex C1: TRAUT activated Cetuximab covalently linked to 6-Mal-PEG6-GalCer 3a,Observed concentration (glycolipid concentration equivalent to observed IFN-γ secretion),iNKT cells [1]; coupling product 0.1 μg/ml,>10^−8M
same,Observed concentration (glycolipid concentration equivalent to observed IFN-γ secretion),iNKT cells [1]; coupling product 1 μg/ml,>10^−8M
same,Observed concentration (glycolipid concentration equivalent to observed IFN-γ secretion),iNKT cells [1]; coupling product 10 μg/ml,>10^−8M
same,IFN-γ cytokine release by iNKT cells,"iNKT cells [1]; transfected-CD1d Hela cells, fractions 10, 1 and 0.1 μg/ml",induces IFN-γ cytokine release by iNKT cells from all diluted fractions
same,Observed concentration (glycolipid concentration equivalent to observed IFN-γ secretion),iNKT cells [2]; coupling product 0.1 μg/ml,>10^−6M
same,Observed concentration (glycolipid concentration equivalent to observed IFN-γ secretion),iNKT cells [2]; coupling product 1 μg/ml,>10^−6M
same,Observed concentration (glycolipid concentration equivalent to observed IFN-γ secretion),iNKT cells [2]; coupling product 10 μg/ml,>10^−6M
same,IFN-γ cytokine release by iNKT cells,"iNKT cells [2]; non-CD1d Hela cells, fractions 10, 1 and 0.1 μg/ml",induces IFN-γ cytokine release by iNKT cells from all diluted fractions
same,cytokine secretion level compared with free 3a,iNKT cells [2]; non-CD1d tumor cells,upper level than the maximum release
same,ADCC potency,HCT116 and HeLa cells,preserved in all conditions on both models
